The results in this text go back to patent US11059818B2, “Triazolopyridine inhibitors of myeloperoxidase” (BRISTOL-MYERS SQUIBB COMPANY, priority 2016, dated 2021).

The chains behind the UniProt entries cited, without tags or fusion partners. Residues count along the entry.
UniProt P05164, 49-745 limits assumed: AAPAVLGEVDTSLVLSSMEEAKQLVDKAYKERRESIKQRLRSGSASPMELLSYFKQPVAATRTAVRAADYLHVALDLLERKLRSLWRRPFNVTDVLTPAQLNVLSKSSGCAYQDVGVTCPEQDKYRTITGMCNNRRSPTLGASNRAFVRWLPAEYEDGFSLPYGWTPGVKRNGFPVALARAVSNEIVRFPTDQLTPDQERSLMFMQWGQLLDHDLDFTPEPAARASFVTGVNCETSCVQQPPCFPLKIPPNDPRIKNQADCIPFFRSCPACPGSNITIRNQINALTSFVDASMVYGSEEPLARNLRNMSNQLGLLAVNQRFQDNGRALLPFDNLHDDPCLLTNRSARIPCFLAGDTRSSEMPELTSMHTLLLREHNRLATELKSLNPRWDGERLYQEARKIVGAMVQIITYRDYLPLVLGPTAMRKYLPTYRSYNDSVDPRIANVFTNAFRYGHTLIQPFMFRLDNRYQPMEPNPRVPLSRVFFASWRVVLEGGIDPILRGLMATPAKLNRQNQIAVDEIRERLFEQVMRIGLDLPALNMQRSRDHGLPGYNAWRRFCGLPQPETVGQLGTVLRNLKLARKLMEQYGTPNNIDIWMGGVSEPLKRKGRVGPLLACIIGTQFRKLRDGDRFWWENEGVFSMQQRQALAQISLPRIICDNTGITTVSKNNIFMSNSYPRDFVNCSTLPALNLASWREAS

As a reminder, the IC50 is the concentration that gives 50% inhibition.

The first assay addresses T1, myeloperoxidase (Homo sapiens (Human), UniProt P05164). Kind of assay: MPO Peroxidation Assay (Amplex Red Assay). The note with it: read-out: Amplex Red Assay IC50 value, potency range class, tested form: 2TFA. The procedure: MPO Peroxidation Assay (Amplex Red Assay)
MPO peroxidation activity was measured in 100 mM KPi (pH 7.4) by utilizing the non-fluorescent reagent Amplex Red (Invitrogen Cat. #A12222) which can be oxidized to the highly fluorescent resorufin. Amplex Red is oxidized by the peroxidase action of MPO to resorufin. Reactions were carried out in 50 μL total volume by adding a 25 μL mixture of 200 pM myeloperoxidase and 40 nM H2O2(Sigma #349887) to 100 nL inhibitor in 100% DMSO in a 384 well Perkin Elmer Optiplate. Enzyme and compound were preincubated for ten minutes at rt.
After the ten minute preincubation, 25 μL of an Amplex Red mixture containing 200 μM Amplex Red and 10 mM H2O2 was added to the plate. Kinetic determinations were carried out immediately on a Perkin Elmer Envision (15 minute kinetic read, Ex: 535 nm, Em: 590 nm).
IC50 values were calculated by determining the slope of the linear portion of the kinetic trace (180-540 secs), and using that calculated slope to determine % inhibition occurring at each concentration of inhibitor using the following equation:
(§1) [formula] where A=minimal Y value (activity level of inhibited sample), B=maximal Y value (activity level of uninhibited sample), C=Log IC50, D=Hill Slope, x=concentration of inhibitor. MPO Chlorination Assay (APF Assay)
For `Nc1cc(C(CCNC23CCC(c4ccccc4)(CC2)CC3)c2cnn(Cc3cccc(O)c3)c2)c2nn[nH]c2n1` (stereo not shown), the IC50 was 0.001 to 0.1 µM.
On the same count and under the same terms, next, `COCCN(CCC(c1cnn(Cc2cccc(O)c2)c1)c1cc(N)nc2[nH]nnc12)C12CCC(c3ccccc3)(CC1)[C@H](O)C2` (stereo partly shown): 0.101 to 0.999 µM; `Nc1cc(C(CCNC23CCC(c4ccccc4)(CC2)[C@H](O)C3)c2cnn(CCc3cccc(O)c3)c2)c2nn[nH]c2n1` (stereo partly shown): 0.001 to 0.1 µM.
For `NC(=O)CN(CCC(c1cnn(Cc2cccc(O)c2)c1)c1cc(N)nc2[nH]nnc12)C12CCC(c3ccccc3)(CC1)[C@H](O)C2` (stereo partly shown), the IC50 is 0.101 to 0.999 µM.
For the molecule `Nc1cc(C(CCN(CCO)C23CCC(c4ccccc4)(CC2)CC3)c2cnn(Cc3cccc(O)c3)c2)c2nn[nH]c2n1` (stereo not shown), the IC50 was in the range of 0.001 to 0.1 µM.

In another assay the target is T1, myeloperoxidase. Kind of assay: MPO Chlorination Assay (APF Assay). The conditions noted are these: read-out: APF Assay IC50 value, potency range class, tested form: 2TFA. The procedure:
as §1
MPO chlorination activity was measured in 100 mM KPi (pH 7.4) by utilizing the non-fluorescent reagent Aminophenyl fluorescein (APF, Invitrogen Cat. #A36003). APF is cleaved by (—OCl) to yield the fluorescent compound fluorescein. Reactions were carried out in 50 μL total volume by adding a 25 μL mixture of 200 pM myeloperoxidase and 120 mM NaCl to 100 nL inhibitor in 100% DMSO in a 384 well, non-binding surface clear bottom plate (Corning #3655). Enzyme, inhibitor, and chloride were preincubated for ten minutes at rt.
After the ten minute preincubation, 25 μL of an APF mixture containing […], 120 mM NaCl and 10 μM H2O2 was added to the plate using the internal dispensing system of a Hammatsu FDSS 6000. Kinetic determinations were carried out immediately on the FDSS 6000 (3 minute kinetic read, 1 read every second, ex: 485 nm, em: 535 nm). IC50 values for inhibitors were calculated by taking the slope of the linear portion of the kinetic measurement (20 seconds to ˜80-120 secs). […]
[formula] where A=minimal Y value (activity level of inhibited sample), B=maximal Y value (activity level of uninhibited sample), C=Log IC50, D=Hill Slope, x=concentration of inhibitor.
On to `Nc1cc(C(CCNC23CCC(c4ccccc4)(CC2)CC3)c2cnn(Cc3cccc(O)c3)c2)c2nn[nH]c2n1` (stereo not shown), for which the IC50 was in the range of 0.001 to 0.1 µM.
Still for that read-out and setting: with `COCCN(CCC(c1cnn(Cc2cccc(O)c2)c1)c1cc(N)nc2[nH]nnc12)C12CCC(c3ccccc3)(CC1)[C@H](O)C2` (stereo partly shown) the figure was 0.001 to 0.1 µM.
Regarding `Nc1cc(C(CCNC23CCC(c4ccccc4)(CC2)[C@H](O)C3)c2cnn(CCc3cccc(O)c3)c2)c2nn[nH]c2n1` (stereo partly shown), the IC50 is 0.001 to 0.1 µM.
In the case of `NC(=O)CN(CCC(c1cnn(Cc2cccc(O)c2)c1)c1cc(N)nc2[nH]nnc12)C12CCC(c3ccccc3)(CC1)[C@H](O)C2` (stereo partly shown), the IC50 was in the range of 0.101 to 0.999 µM.
Same read-out and setting: next, `Nc1cc(C(CCN(CCO)C23CCC(c4ccccc4)(CC2)CC3)c2cnn(Cc3cccc(O)c3)c2)c2nn[nH]c2n1` (stereo not shown): 0.001 to 0.1 µM.
